{
  "source": "patent US10968184B2",
  "about": "“Pyrimidine prodrugs for the treatment of viral infections and further diseases” (Janssen Sciences Ireland Unlimited Company, priority 2016, dated 2021)",
  "key": {"[1]": {"assay": "Plasma stability in rat plasma", "settings": "37° C., 1 μM, 7 or 24 h"}, "[2]": {"assay": "Plasma stability in human plasma", "settings": "37° C., 1 μM, 7 or 24 h"}, "rat hepatocytes": {"test_system": "rat hepatocytes", "assay": "Intrinsic clearance in rat hepatocytes", "settings": "10^6 cells/mL, 1 μM, up to 120 min"}, "human hepatocytes": {"test_system": "human hepatocytes", "assay": "Intrinsic clearance in human hepatocytes", "settings": "10^6 cells/mL, 1 μM, up to 120 min"}, "[3]": {"assay": "Stability in simulated gastric fluid (SGF)", "settings": "SGF with pepsin, incubation up to 2 hours"}, "[4]": {"assay": "Intrinsic clearance in rat liver microsomes", "settings": "37° C., 1 μM compound, 1 mg/mL microsomal protein, up to 60 min"}, "[5]": {"test_system": "MDCK cell line transfected with human MDR1 (P-glycoprotein)", "assay": "Permeability and efflux in vitro in MDCK-MDR1 cell line", "settings": "MDCK-MDR1 cells, B->A -GF120918 / A->B -GF120918"}, "[6]": {"assay": "Stability in fasted simulated intestinal fluid (FASSIF)", "settings": "FASSIF with pancreatine and esterase, incubation up to 2 hours"}},
  "data": [
    {"smiles": "CCCC[C@H](CO[Si](C)(C)C(C)(C)C)Nc1nc(NP(=O)(OCOC(=O)C(C)(C)C)OCOC(=O)C(C)(C)C)ncc1OC", "values": [
      {"measurement": "t1/2 rat plasma", "setting": "[1]", "value": "<24", "unit": "min"},
      {"measurement": "t1/2 human plasma", "setting": "[2]", "value": 60, "unit": "min"},
      {"measurement": "CLint hepatocytes rat (uL/min/1e6 cells)", "setting": "rat hepatocytes", "value": "> 280"},
      {"measurement": "CLint hepatocytes human (uL/min/1e6 cells)", "setting": "human hepatocytes", "value": "> 280"},
      {"measurement": "t1/2 SGF", "setting": "[3]", "value": 234, "unit": "min"},
      {"measurement": "CLint rat liver microsomes", "setting": "[4]", "value": "> 347", "unit": "µL/min/mg"},
      {"measurement": "Efflux ratio B->A/A->B", "setting": "[5]", "value": "> 43"},
      {"measurement": "t1/2 FASSIF", "setting": "[6]", "value": 6, "unit": "min"}
    ]}
  ]
}
